In patent US9250231B2, “Method for selecting mevalonate synthesis modulators using cells derived from human pluripotent cells” (Centre d'Etude des Cellules Souches, priority 2010, dated 2016):

Legend:
[1] = test system: <<MSC>> SA01 cells derived from hES cells (SA01); details: 72 hours, 384-well plates
[2] = test system: <<MSC>> SAMU 43 cells derived from hES cells (SA01); assay: Dose response of statins with and without mevalonate, cells counted by image analysis; assay type: cell-based, human; details: 7 days of cultivation

Substance: Mevinolin
- cell viability as percentage of the result without any treatment, With Mevalonate ([1]; with mevalonate): 96.4%
- cell viability as percentage of the result without any treatment, Without Mevalonate ([1]; without mevalonate): 53.6%
- number of cells (image analysis) ([2]; statin 5 10^−6 M): 122
- number of cells (image analysis) ([2]; statin 5 10^−7 M): 6934
- number of cells (image analysis) ([2]; statin 10^−6 M): 3232
- number of cells (image analysis) ([2]; statin 10^−7 M): 10021
